Values of other authors, collected in patent US20050255458A1, “Drug discovery assays based on the biology of chronic disease” (priority 2002, published 2005).
Read-outs that look alike come from different tables or passages of the source.

Key:
[1] = system: B7-CD28/CD152 costimulatory pathway; conditions: four intravenous infusions, 26-wk; cited from earlier work
ERK = conditions: cited from earlier work
AR gene = conditions: cited from earlier work
TF = conditions: 24 hours; cited from earlier work
PTP1B = target: T1, PTP1B (Homo sapiens, UniProt P18031); conditions: Huyer 1997; cited from earlier work
T1 sequence (P18031 1-435): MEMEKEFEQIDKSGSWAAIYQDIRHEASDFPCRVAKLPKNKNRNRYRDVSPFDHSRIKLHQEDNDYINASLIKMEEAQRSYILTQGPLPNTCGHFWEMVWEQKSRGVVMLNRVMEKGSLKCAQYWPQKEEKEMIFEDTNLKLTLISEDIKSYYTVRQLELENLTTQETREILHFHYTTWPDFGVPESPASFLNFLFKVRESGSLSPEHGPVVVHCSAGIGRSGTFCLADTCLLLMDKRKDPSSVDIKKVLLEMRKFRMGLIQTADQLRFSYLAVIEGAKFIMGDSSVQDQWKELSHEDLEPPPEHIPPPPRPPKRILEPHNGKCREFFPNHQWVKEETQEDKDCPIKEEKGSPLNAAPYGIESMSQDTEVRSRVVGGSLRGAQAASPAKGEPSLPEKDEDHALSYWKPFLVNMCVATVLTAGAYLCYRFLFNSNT

Compound: CTLA4Ig: soluble chimeric protein CTLA4Ig (BMS-188667)
- clinical outcome in psoriasis vulgaris [1]: Clinical improvement

Compound: FSH: follicle-stimulating hormone
- ERK phosphorylation (ERK; Sertoli cells, 19-day-old rats, 100 ng/ml, 15 minutes): inhibition of ERK phosphorylation
- ERK phosphorylation (ERK; oocytes and granulosa cells, dose dependent): stimulates ERK phosphorylation
- transcription rate of AR endogenous gene (run-on) (AR gene; 2-4 hours treatment): no marked changes
- AR mRNA (AR gene; Sertoli cells, 21 day old rats, 500 ng/ml, 60 minutes): increase in AR mRNA

Compound: AGE-alb: advanced glycation end products albumin
- TF mRNA (TF): increase in TF mRNA

Compound: [O]=[V]([O-])([O-])[O-] [vanadate, Vanadate (VO4^−3)]
- PTP1B activity (PTP1B): inhibition
